# From patent publication US11167013B2, “Sucrose acetate isobutyrate-based compositions, methods and uses thereof” (ASSOCIATION FOR THE ADVANCEMENT OF TISSUE ENGINEERING CELL …, priority 2017, dated 2021)
# Test: Solubility, lipophilicity and viscosity of SAIB
# Type: physicochemical
# Description: It is fully esterified at a ratio of six isobutyrate groups to two acetate groups. […] SAIB can be prepared by controlled esterification of sucrose (food grade) with acetic and isobutyric anhydrides, in the presence of a catalyst. The produced ester can be purified carrying out a filtration and distillation steps.
# It was noticed that, mixing SAIB/IL in Chitin/IL and mixing Chitin/IL in SAIB/IL was slightly different, apparently having the first a better mechanical behavior in the end of the process.
substance,measurement,setting,value
Sucrose acetate isobutyrate [SAIB],dissolution in [bmim][Ac],ionic liquid [bmim][Ac],able to dissolve in [bmim][Ac]
same,dissolution in [bmim][Cl],ionic liquid [bmim][Cl],does not dissolve in [bmim][Cl]
